Source: PMC11455612 (Cell, 2024)

Molecular target: wild-type human phosphatidylserine synthase 1 (PSS1^WT), C-terminal Flag-tag (human) (UniProt P48651)
Experiment: cryo-EM structure

- stoichiometry N: 2
Substance: wild-type human phosphatidylserine synthase 1 (PSS1^WT), C-terminal Flag-tag (from UniProt P48651-1 1-409) (enzyme)
